Laboratory results from PMC3403872, “Contrasting effects of linaclotide and lubiprostone on restitution of epithelial cell barrier properties and cellular homeostasis after exposure to cell stressors” (BMC Pharmacology, 2012).
Some compounds may have been tested in ways that are not shown here.

Test system: guanylate cyclase, GC-C (T84 cells)
Assay: [cGMP]i in T84 cells
Conditions: positive control, 1 μM NaNP, compared with linaclotide

Q: Which “[cGMP]i level relative to linaclotide” value does the source give for Sodium nitroprusside here?
A: much higher levels of [cGMP]i
